In PMC4718804 (eLife, 2015):

Biological target: NPC1(P202A/F203A) (Homo sapiens, UniProt O15118, F203A/P202A)
Assay: UV crosslinking of U-X to transfected NPC1(P202A/F203A) in 10-3 cells
Details: 0.3 µM U-X, Figure 7A

Question: Which “crosslinking of U-X to NPC1 with P202A/F203A mutation” value does the source give for `C#CCOc1ccc(C(=O)c2ccc(C(=O)OCCN(CC)CCOC3CCC4(C)C(=CCC5C6CCC(=O)C6(C)CCC54)C3)cc2)cc1` (stereo not shown) [U-X] here?
Answer: did not prevent crosslinking
